Values of other authors in US20250121105A1, “METHODS FOR TREATING CANCER USING COMBINATIONS OF PARP INHIBITORS AND ANTIBODY RADIOCONJUGATES” (ACTINIUM PHARMACEUTICALS, INC., priority 2019, published 2025).

By UniProt entry, the sequences of proteins in these tests, tags left out.
UniProt P09874, whole entry: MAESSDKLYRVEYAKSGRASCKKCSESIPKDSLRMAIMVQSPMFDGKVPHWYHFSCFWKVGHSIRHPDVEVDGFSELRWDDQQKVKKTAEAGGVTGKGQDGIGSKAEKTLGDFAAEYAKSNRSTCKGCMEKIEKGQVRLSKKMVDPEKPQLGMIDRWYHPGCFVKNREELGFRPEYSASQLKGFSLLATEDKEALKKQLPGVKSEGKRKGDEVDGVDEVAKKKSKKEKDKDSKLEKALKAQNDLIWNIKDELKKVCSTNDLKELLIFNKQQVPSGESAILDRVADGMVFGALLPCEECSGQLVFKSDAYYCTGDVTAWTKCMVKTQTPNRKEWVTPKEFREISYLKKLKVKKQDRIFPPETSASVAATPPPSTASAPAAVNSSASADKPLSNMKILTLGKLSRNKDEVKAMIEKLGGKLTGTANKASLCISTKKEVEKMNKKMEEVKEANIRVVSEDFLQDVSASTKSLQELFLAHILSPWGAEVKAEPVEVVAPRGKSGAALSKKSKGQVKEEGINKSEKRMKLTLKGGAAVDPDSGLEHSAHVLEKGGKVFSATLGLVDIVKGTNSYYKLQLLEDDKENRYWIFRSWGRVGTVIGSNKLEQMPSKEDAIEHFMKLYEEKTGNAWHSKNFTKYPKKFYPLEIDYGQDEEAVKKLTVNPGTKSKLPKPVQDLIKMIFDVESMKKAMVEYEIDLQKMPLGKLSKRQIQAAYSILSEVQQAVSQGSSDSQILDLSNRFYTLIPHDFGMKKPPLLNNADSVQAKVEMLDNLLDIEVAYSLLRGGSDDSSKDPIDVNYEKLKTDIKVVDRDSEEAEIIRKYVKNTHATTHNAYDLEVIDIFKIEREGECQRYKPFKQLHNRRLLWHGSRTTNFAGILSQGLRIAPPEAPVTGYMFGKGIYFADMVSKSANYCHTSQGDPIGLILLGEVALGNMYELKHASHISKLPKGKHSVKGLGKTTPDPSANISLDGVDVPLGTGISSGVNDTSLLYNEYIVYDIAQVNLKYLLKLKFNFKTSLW

Target: PARP1 (Homo sapiens, UniProt P09874)
Details: compared with veliparib

Compound: Cn1ncnc1[C@H]1c2n[nH]c(=O)c3cc(F)cc(c23)N[C@@H]1c1ccc(F)cc1 [talazoparib]
- capability to trap PARP1 on DNA: more effective in trapping PARP1 than are veliparib
